Measurements taken from BindingDB's records for PubMed 1836757 (University of Heidelberg, 1991).

By UniProt entry, the sequences of proteins in these tests, tags left out. Where a name states a change or a piece, a line headed by the entry shows the natural chain unless it says otherwise.
UniProt P08908, whole entry: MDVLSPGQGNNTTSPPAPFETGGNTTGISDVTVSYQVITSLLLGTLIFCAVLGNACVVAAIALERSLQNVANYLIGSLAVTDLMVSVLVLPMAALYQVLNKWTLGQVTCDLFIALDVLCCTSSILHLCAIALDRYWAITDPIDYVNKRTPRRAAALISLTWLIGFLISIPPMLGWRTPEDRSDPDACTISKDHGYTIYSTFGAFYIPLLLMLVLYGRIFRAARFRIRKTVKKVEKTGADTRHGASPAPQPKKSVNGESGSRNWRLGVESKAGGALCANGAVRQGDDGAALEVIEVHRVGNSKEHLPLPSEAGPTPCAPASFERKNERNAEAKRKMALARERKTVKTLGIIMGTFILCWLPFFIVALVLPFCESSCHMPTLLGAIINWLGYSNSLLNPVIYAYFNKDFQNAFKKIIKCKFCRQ
UniProt P28221: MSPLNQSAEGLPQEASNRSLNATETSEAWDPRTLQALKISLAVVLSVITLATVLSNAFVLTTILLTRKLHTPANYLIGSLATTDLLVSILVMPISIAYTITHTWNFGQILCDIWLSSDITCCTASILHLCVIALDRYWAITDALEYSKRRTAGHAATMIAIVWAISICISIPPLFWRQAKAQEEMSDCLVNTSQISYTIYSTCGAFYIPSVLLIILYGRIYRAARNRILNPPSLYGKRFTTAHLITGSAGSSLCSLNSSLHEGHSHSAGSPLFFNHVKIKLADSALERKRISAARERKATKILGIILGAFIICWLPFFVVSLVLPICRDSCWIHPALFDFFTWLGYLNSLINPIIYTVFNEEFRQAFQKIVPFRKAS
UniProt P28222, whole entry: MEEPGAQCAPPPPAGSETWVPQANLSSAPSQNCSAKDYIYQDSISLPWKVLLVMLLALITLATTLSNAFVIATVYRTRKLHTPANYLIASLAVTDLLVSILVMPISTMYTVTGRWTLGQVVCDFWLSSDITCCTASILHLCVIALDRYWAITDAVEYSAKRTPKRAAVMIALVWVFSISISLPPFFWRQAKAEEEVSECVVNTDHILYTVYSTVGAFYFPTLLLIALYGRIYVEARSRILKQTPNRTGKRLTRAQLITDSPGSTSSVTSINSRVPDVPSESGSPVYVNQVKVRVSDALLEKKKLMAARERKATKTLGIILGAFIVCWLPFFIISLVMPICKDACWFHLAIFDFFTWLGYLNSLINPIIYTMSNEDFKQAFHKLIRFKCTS
UniProt P28335: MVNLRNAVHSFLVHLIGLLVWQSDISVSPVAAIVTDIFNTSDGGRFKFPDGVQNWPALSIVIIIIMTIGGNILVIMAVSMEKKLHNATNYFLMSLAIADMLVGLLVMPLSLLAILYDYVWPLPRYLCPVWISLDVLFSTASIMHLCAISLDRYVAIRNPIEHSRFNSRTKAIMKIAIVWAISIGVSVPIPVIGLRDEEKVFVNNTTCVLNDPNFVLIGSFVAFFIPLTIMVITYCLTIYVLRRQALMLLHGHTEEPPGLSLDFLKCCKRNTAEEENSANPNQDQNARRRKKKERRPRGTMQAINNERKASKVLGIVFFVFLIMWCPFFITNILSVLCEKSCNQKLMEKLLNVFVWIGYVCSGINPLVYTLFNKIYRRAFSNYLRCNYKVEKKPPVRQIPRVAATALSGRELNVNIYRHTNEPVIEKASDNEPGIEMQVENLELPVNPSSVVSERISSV

Molecular target: 5-hydroxytryptamine receptor 1A/1B/1D/2C (Homo sapiens, UniProt P08908+P28221+P28222+P28335)

In the case of `COC(=O)[C@@H]1[C@H]2C[C@H]3c4[nH]c5ccccc5c4CCN3C[C@@H]2CC[C@@H]1O` [yohimbic acid methyl ester], the Ki is reported as 4.5 µM.
